Legend:
Acetylcholinesterase [1] = target: Acetylcholinesterase (Homo sapiens, UniProt P22303); assay: Concentration required to inhibit 50% of acetylcholinesterase (AChE) in human erythrocyte(RBC).
Acetylcholinesterase [2] = target: T1, Acetylcholinesterase (Electrophorus electricus, UniProt O42275); assay: Inhibition of eel acetylcholinesterase (AChE) activity by 50%
Acetylcholinesterase [3] = target: Acetylcholinesterase (Bos taurus, UniProt P23795); assay: Inhibition of acetylcholinesterase (AChE) in bovine erythrocyte(RBC)
Acetylcholinesterase [4] = target: T1, Acetylcholinesterase; assay: Compound was tested for the competitive inhibition of phosphorylation of Eel acetylcholinesterase (AChE)
[5] = target: T2, Muscarinic acetylcholine receptor (UniProt P12657+P32211+Q920H4+Q9ERZ3+Q9ERZ4); assay: Compound was tested for the binding affinity towards muscarinic receptor in mouse brain membrane
[6] = target: T2, Muscarinic acetylcholine receptor; assay: Compound was tested for the binding affinity towards muscarinic acetylcholine receptor in mouse brain membrane

By UniProt entry, the sequences of proteins in these tests, tags left out. Where a name states a change or a piece, a line headed by the entry shows the natural chain unless it says otherwise. Residues count along the entry.
UniProt P22303, 32-614 limits assumed: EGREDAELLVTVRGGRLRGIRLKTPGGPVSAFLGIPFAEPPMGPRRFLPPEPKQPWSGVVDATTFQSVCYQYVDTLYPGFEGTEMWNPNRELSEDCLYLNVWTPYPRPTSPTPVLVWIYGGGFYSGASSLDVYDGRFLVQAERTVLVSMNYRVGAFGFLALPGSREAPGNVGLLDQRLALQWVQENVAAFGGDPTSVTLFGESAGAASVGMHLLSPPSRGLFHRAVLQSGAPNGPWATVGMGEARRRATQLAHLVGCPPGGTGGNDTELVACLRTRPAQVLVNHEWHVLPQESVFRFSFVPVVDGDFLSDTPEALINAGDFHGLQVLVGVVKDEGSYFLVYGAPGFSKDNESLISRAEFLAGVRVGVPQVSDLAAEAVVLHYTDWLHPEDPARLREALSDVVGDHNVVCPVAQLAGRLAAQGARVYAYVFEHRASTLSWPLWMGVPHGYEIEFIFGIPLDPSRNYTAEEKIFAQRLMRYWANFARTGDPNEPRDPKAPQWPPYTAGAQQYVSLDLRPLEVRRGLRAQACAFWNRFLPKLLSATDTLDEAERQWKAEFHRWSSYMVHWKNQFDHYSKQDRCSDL
UniProt O42275, 24-633 limits assumed: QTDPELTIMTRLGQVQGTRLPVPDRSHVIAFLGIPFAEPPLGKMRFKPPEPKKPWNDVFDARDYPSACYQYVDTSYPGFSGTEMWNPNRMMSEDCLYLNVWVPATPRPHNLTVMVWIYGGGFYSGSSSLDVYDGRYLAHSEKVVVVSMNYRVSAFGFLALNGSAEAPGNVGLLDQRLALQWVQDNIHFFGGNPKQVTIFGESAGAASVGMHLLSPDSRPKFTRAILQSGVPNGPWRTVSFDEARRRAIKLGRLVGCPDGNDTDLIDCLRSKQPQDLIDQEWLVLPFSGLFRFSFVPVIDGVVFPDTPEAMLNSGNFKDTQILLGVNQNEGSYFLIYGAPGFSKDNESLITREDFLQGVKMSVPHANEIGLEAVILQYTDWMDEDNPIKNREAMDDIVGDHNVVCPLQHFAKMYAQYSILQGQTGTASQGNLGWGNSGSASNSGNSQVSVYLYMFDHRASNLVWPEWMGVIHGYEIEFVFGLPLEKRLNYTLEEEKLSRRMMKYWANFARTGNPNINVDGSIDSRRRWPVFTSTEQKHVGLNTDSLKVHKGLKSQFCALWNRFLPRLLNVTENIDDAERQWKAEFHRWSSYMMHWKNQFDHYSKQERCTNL
UniProt P23795, 31-613 limits assumed: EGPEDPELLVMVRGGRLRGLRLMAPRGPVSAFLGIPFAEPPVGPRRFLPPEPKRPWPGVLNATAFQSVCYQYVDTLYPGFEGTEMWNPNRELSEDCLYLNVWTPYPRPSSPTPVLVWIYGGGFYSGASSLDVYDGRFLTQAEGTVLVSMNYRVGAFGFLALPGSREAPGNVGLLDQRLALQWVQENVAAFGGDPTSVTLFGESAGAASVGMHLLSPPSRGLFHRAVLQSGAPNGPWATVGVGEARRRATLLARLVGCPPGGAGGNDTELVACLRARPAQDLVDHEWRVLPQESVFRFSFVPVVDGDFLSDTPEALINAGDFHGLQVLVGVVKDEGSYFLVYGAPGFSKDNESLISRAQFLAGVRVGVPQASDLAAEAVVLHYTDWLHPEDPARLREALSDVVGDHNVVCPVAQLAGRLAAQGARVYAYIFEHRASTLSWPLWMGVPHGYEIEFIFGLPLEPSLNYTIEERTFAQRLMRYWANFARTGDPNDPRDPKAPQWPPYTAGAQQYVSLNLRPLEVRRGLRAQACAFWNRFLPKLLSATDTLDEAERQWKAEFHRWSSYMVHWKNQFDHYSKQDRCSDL
UniProt P12657: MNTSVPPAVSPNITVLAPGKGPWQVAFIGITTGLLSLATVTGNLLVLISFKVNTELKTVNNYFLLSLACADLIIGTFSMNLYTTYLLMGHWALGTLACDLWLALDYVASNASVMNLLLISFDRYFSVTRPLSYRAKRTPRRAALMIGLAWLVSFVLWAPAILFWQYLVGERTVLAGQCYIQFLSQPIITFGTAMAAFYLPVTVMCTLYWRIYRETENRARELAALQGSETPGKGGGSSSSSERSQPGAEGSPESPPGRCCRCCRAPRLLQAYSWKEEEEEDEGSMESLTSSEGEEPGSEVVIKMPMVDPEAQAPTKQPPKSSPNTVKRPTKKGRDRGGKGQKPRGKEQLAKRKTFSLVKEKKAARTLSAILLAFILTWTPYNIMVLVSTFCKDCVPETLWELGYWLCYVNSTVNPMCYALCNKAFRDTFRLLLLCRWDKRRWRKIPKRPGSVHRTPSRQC
UniProt P32211: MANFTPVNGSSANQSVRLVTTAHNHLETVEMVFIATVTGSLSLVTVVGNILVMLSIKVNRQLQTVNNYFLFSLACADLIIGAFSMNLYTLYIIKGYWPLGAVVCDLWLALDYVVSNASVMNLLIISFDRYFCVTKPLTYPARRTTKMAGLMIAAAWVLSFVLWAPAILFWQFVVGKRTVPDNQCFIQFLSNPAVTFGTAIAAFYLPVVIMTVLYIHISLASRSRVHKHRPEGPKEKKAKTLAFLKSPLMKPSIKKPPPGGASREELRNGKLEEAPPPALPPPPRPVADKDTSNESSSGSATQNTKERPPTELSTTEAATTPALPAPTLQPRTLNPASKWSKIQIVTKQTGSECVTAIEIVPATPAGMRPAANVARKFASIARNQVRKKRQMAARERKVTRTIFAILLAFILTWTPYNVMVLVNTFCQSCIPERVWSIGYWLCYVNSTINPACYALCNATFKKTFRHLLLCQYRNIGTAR
UniProt Q920H4: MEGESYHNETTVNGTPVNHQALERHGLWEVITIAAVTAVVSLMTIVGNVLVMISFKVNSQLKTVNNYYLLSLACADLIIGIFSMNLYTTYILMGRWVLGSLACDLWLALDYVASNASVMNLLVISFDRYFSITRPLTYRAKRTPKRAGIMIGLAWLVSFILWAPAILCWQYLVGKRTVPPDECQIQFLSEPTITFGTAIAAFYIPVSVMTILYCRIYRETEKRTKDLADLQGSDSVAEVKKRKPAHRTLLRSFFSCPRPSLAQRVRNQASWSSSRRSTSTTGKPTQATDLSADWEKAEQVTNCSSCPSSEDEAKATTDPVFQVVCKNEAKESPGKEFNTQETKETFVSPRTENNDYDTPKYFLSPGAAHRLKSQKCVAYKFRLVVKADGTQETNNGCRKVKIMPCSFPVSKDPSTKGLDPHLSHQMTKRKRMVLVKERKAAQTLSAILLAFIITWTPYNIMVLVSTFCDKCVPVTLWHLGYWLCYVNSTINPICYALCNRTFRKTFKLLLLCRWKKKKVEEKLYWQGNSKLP
UniProt Q9ERZ3: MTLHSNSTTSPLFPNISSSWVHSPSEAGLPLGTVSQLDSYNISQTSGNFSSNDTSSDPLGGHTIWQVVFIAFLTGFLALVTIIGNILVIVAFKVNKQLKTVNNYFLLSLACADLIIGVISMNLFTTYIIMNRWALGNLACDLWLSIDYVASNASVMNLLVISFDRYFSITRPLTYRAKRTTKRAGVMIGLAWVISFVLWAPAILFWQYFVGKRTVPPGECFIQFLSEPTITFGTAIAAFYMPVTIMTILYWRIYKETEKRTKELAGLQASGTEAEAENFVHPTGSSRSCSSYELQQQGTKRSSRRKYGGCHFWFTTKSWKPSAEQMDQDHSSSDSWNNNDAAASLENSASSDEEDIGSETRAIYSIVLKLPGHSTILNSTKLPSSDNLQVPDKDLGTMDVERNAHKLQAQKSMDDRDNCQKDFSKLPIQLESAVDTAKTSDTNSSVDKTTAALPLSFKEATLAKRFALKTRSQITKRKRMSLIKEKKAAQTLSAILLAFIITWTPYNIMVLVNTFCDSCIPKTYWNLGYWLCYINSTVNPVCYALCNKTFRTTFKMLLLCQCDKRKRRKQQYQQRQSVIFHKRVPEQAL
UniProt Q9ERZ4: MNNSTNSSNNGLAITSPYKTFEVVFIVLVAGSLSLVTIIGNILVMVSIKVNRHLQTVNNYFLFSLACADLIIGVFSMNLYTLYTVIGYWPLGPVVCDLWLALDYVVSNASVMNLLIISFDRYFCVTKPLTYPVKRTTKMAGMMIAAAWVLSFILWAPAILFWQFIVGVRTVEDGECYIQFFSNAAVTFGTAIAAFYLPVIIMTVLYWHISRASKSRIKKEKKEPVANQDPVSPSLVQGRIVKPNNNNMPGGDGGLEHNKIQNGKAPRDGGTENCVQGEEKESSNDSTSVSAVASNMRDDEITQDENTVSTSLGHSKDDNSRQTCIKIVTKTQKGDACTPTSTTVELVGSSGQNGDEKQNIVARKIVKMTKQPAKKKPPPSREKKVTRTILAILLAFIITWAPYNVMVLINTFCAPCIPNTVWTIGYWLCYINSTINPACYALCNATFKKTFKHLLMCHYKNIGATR

Cn1cc[n+](COCC2CCCCC2)c1/C=N/O
IC50 (Acetylcholinesterase [1]): 42 µM

CC(C)OC[n+]1ccn(C)c1/C=N/O
IC50 (Acetylcholinesterase [1]): 49 µM | IC50 (Acetylcholinesterase [2]): 80 µM | IC50 (Acetylcholinesterase [3]): 48 µM

COC[n+]1ccn(C)c1/C=N/O
Ki (Acetylcholinesterase [4]): 48 µM

CCC(OC[n+]1ccn(C)c1/C=N/O)C(C)(C)C (stereo not drawn)
IC50 (Acetylcholinesterase [1]): 24 µM

Cn1cc[n+](COC[n+]2ccn(C)c2/C=N/O)c1/C=N/O
IC50 (Acetylcholinesterase [1]): 7.8 µM | IC50 (Acetylcholinesterase [2]): 3 µM

Cn1cc[n+](COC[n+]2ccccc2/C=N/O)c1/C=N/O
IC50 (Acetylcholinesterase [1]): 38 µM | IC50 (Acetylcholinesterase [2]): 12 µM

Cc1n(C)cc[n+]1COC(C)C(C)(C)C (stereo not drawn)
IC50 (Acetylcholinesterase [1]): 33 µM

CC(CC(C)(C)C)OC[n+]1ccn(C)c1/C=N/O (stereo not drawn)
IC50 (Acetylcholinesterase [1]): 32.5 µM

CCCCCCCCOC[n+]1ccn(C)c1/C=N/O
IC50 (Acetylcholinesterase [1]): 9.5 µM | IC50 (Acetylcholinesterase [2]): 7 µM | IC50 (Acetylcholinesterase [3]): 11 µM

Cn1cc[n+](COCc2cccc3ccccc23)c1/C=N/O.[Cl-]
IC50 [5]: 35 µM

Cn1cc[n+](COCCCc2ccccc2)c1/C=N/O.[Cl-]
IC50 [5]: 22 µM

CC(OC[n+]1ccn(C)c1/C=N/O)C(C)(C)C.[Cl-] (stereo not drawn)
IC50 [6]: 80 µM

Cn1cc[n+](COCC(C)(C)C)c1/C=N/O
IC50 (Acetylcholinesterase [1]): 8.4 µM | IC50 (Acetylcholinesterase [2]): 12 µM | IC50 (Acetylcholinesterase [3]): 9.4 µM

Cn1c(/C=N/O)[n+](C)c2ccccc21
IC50 (Acetylcholinesterase [2]): 45 µM

CC(OC[n+]1ccn(C)c1/C=N/O)C(C)(C)C (stereo not drawn)
IC50 (Acetylcholinesterase [1]): 11.5 µM | IC50 (Acetylcholinesterase [2]): 16 µM | IC50 (Acetylcholinesterase [3]): 19 µM | Ki (Acetylcholinesterase [4]): 7.6 µM

Cn1cc[n+](COCCCc2ccccc2)c1/C=N/O
IC50 (Acetylcholinesterase [1]): 21.2 µM | IC50 (Acetylcholinesterase [2]): 15 µM | IC50 (Acetylcholinesterase [3]): 30 µM | Ki (Acetylcholinesterase [4]): 4 µM

Cn1cc[n+](COCc2ccccc2)c1/C=N/O
IC50 (Acetylcholinesterase [1]): 56 µM | IC50 (Acetylcholinesterase [2]): 50 µM | IC50 (Acetylcholinesterase [3]): 62 µM

CCCCOC[n+]1ccn(C)c1/C=N/O
IC50 (Acetylcholinesterase [1]): 27.5 µM | IC50 (Acetylcholinesterase [2]): 20 µM | IC50 (Acetylcholinesterase [3]): 42 µM

Cn1cc[n+](COCc2cccc3ccccc23)c1/C=N/O
IC50 (Acetylcholinesterase [1]): 3.8 µM | IC50 (Acetylcholinesterase [2]): 7 µM | IC50 (Acetylcholinesterase [3]): 4.2 µM | Ki (Acetylcholinesterase [4]): 3.5 µM

CC(OC[n+]1ccn(C)c1/C=N/O)C1CCCCC1 (stereo not drawn)
IC50 (Acetylcholinesterase [1]): 26 µM

CCCCCCOC[n+]1ccn(C)c1/C=N/O
IC50 (Acetylcholinesterase [1]): 25 µM

Cn1cc[n+](COCC2CCCc3ccccc32)c1/C=N/O (stereo not drawn)
IC50 (Acetylcholinesterase [1]): 56 µM
